# From PubChem BioAssay (EPA / NIEHS)
# Protein sequences, listed by entry. Tags and fused reporters are not part of them. Lines headed by an entry give the natural chain unless they say otherwise; changes in a name come on top.
# UniProt P10827: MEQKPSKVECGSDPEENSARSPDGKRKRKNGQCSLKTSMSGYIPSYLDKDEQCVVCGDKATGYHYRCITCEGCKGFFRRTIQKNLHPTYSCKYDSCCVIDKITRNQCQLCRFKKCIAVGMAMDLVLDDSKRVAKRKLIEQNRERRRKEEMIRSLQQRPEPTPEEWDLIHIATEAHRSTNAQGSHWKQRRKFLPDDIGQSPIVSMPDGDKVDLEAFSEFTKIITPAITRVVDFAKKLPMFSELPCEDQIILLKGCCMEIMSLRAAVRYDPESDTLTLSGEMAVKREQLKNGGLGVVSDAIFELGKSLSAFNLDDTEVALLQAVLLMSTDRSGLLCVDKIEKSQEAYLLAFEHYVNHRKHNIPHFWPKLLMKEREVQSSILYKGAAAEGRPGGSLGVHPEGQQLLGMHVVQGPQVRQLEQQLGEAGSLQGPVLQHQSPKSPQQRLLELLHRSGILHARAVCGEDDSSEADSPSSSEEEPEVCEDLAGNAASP
# UniProt P10828: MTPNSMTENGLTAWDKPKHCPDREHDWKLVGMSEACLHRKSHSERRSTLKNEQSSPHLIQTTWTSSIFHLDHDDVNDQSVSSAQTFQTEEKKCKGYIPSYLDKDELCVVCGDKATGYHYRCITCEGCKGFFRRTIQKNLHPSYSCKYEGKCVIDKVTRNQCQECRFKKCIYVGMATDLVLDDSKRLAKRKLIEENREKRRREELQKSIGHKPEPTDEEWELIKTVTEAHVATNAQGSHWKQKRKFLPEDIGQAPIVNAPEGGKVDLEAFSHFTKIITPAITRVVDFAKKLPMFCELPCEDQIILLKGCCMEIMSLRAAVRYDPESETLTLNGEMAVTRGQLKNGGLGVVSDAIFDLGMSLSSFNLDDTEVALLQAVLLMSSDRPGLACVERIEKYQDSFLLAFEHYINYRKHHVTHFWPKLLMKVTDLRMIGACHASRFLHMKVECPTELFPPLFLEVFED
# UniProt P10275: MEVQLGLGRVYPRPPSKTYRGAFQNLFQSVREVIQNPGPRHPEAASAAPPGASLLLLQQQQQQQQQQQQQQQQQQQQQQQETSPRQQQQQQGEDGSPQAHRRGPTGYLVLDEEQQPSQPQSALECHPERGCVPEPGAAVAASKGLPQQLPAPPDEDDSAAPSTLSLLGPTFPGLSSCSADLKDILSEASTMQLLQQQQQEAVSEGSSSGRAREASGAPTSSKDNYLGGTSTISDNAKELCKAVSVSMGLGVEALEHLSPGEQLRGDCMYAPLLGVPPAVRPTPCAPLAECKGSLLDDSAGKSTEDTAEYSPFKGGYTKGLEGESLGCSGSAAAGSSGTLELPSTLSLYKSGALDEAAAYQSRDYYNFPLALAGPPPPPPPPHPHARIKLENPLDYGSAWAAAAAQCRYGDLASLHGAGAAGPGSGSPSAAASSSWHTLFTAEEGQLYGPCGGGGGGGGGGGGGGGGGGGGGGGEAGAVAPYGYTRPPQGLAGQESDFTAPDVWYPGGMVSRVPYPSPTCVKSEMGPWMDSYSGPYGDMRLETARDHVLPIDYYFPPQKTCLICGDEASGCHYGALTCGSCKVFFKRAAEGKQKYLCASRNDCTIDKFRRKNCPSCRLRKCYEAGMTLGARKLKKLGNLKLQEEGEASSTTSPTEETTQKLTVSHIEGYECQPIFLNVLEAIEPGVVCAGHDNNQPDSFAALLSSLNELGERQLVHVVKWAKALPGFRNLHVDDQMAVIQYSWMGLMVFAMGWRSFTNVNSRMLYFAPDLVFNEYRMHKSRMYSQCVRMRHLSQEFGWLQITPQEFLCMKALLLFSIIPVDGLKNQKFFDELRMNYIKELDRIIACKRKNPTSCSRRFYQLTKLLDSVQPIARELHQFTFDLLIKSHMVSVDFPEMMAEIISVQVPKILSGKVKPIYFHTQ
# UniProt P22303: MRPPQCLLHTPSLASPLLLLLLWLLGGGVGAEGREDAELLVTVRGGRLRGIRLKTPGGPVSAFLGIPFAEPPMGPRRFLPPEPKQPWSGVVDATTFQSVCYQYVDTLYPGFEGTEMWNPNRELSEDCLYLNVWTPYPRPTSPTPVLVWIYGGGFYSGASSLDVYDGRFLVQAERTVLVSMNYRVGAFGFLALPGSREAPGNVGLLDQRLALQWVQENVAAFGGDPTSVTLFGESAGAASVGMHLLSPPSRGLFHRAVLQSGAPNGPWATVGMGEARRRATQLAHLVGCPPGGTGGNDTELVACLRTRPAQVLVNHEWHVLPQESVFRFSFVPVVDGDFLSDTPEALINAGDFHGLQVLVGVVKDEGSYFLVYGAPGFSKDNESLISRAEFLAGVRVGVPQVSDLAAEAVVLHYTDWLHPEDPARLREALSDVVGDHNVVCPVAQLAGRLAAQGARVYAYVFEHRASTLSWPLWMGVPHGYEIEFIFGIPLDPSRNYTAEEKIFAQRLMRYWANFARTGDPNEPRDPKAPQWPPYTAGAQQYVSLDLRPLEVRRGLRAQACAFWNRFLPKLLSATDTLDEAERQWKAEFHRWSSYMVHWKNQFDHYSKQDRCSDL
# UniProt Q01827, whole entry, looked up: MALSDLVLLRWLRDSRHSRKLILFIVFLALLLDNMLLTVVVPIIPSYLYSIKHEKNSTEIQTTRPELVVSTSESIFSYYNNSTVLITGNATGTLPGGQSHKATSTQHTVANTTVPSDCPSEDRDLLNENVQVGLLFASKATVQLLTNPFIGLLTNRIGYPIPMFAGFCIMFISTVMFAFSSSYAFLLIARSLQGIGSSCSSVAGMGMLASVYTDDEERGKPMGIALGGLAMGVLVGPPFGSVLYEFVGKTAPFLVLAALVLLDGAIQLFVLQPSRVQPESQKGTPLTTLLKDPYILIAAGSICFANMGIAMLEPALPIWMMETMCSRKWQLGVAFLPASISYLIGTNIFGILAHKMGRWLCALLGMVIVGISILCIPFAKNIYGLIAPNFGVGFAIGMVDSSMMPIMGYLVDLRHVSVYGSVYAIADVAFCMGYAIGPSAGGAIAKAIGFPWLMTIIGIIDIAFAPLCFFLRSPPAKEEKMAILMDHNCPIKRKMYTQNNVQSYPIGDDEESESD
# UniProt P15207: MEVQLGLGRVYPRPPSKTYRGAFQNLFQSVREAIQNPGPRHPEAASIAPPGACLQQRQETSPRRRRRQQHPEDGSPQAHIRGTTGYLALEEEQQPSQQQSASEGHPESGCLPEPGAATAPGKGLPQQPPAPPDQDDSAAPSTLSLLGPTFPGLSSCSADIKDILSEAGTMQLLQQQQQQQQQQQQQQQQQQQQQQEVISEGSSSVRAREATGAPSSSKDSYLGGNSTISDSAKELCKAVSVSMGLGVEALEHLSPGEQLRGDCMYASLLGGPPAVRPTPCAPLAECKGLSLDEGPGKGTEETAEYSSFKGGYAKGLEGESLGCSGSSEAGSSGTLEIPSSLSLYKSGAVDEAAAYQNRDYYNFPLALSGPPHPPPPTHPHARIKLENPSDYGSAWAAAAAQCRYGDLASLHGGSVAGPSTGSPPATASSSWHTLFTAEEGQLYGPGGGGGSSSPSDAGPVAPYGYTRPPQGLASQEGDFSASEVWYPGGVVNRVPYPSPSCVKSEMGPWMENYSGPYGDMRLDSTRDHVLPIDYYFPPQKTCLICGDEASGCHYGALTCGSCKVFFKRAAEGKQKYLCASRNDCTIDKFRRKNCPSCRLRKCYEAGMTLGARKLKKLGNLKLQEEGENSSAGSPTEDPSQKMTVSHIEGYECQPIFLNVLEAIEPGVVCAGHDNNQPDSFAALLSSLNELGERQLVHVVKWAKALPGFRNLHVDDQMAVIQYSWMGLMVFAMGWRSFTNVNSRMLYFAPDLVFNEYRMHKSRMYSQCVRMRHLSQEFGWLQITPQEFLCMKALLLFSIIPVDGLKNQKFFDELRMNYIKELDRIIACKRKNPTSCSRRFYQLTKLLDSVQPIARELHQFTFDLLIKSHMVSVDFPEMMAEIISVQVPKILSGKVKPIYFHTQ
# “And” between values parts separate entries of the source, which are not always exact repeats. Equal values may be shown once. Only a part is listed here, and it is no random draw. Records with an inconclusive call do not appear. Some compounds were tested as several samples or in several runs, with calls that do not always agree. The source made the active and inactive calls. Rule for the calls, unless noted: active = hit-call score of the fitted dose curve at least 0.9, where 1 is the maximum; inconclusive = response in the unintended direction; inactive = score below 0.9.
# Key:
# [1] = target: Thyroid hormone receptor alpha (Rattus norvegicus) + Thyroid hormone receptor beta (Rattus norvegicus) (UniProt P18113+P63059); experiment: TOX21_TR_LUC_GH3_Agonist_Followup: Tox21 GH3 Thyroid Hormone Receptor Agonism Luciferase Follow-Up Assay (AID 2283939)
# Outline: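 Agonist-mode confirmatory run: 15 concentrations (5 nM to 92 uM final) on GH3 rat pituitary cells, 24 h at 37C/5% CO2, T3 as positive control. Luminescence read with ONE-Glo after 30 min.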
# THRA (gene 7067) = THRA (gene 7067) (UniProt P10827); experiment: TOX21_TRA_COA_Agonist_Followup_ratio: Tox21 Thyroid Hormone Receptor alpha Agonism through Coactivator Recruitment Follow-Up Assay, Ratio (AID 2283948; active = hit-call score of the fitted dose curve at least 0.9, where 1 is the maximum; inactive = score below 0.9)
# Outline: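 Read-out is the 520/495 nm emission ratio (ex 340 nm), scaled between DMSO-only wells as 0% and T3 wells as 100%. It reflects fluorescein-SRC-2 peptide recruitment to GST-TRα LBD detected via terbium anti-GST antibody.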
# THRB (gene 7068) [2] = target: THRB (gene 7068) (UniProt P10828); experiment: TOX21_TRB_BLA_Agonist_Followup_ratio: Tox21 Thyroid Hormone Receptor beta Agonism Beta-lactamase (BLA) Follow-Up Assay, Ratio (AID 2283954)
# Outline: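 Agonist mode: compounds (11-point, triplicate) incubated 18 h with HEK293T cells carrying GAL4-DBD/human TRβ-LBD and UAS-β-lactamase. Blue/green (460/530 nm) FRET ratio read after 2 h CCF4-AM loading; CellTiter-Glo viability run in the same plates.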
# THRB (gene 7068) [3] = target: THRB (gene 7068) (UniProt P10828); experiment: TOX21_TRB_COA_Agonist_Followup_ratio: Tox21 Thyroid Hormone Receptor beta Agonism through Coactivator Recruitment Follow-Up Assay, Ratio (AID 2283963; active = hit-call score of the fitted dose curve at least 0.9, where 1 is the maximum; inactive = score below 0.9)
# Outline: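 Cell-free TR-FRET coactivator recruitment: GST-tagged TRβ LBD (5.0 nM) with 0.10% BSA incubated with compound, then fluorescein-SRC-2 peptide (200 nM) and Tb-anti-GST antibody (2 nM) added. 520:495 nm ratio normalized to DMSO (0%) and T3 (100%).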
# AR (gene 367) = AR (gene 367) (UniProt P10275); experiment: ACEA_AR_agonist_80hr: ACEA Biosciences xCELLigence Real-Time Cell Analysis on Androgen Receptor Agonism for Proliferation (AID 2283783);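 note: hits increase impedance growth signal above DMSO baseline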
# Outline: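 Impedance (RT-CES) growth signal at 80 h post-dose; 22Rv1 cells, 8-pt 1:4 series, top 100 uM final, DMSO ≤0.5%; duplicate plates; gain-of-signal fit relative to DMSO baseline.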
# [4] = target: human Acetylcholinesterase (AChE), ACHE (gene 43) (UniProt P22303); experiment: NVS_ENZ_hAChE: NovaScreen (NVS) Enzymatic Assay for human Acetylcholinesterase (AChE) (AID 2283129)
# Outline: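 Actives from a duplicate single-point screen (25 uM) were followed up in concentration series. Enzyme activity read by absorbance (colorimetric) 0.33 hour after dosing, cell-free, normalized to DMSO, with loss of signal scored.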
# [5] = target: Norway rat Vesicular Monoamine Transporter (VMAT2), neurotransmitter transporter, Slc18a2 (gene 25549) (UniProt Q01827); experiment: NVS_TR_rVMAT2: NovaScreen (NVS) Transporter Assay for Norway rat Vesicular Monoamine Transporter (VMAT2), neurotransmitter transporter (AID 2283376);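 note: actives lower the bound radioligand signal below the DMSO level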
# Outline: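 Filter-based scintillation counting of radioligand bound to rat forebrain-derived VMAT2 protein, cell-free, 1 h post-dose. Signal loss relative to DMSO control scored; single-concentration duplicate screen (25 uM) followed by concentration-response testing of actives.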
# [6] = target: rat Androgen Receptor (AR), Ar (gene 24208) (UniProt P15207); experiment: NVS_NR_rAR: NovaScreen (NVS) Nuclear Receptor Binding Assay for rat Androgen Receptor (AR) (AID 2283366)
compound,measurement,setting,value
N[C@@H](Cc1ccc(Oc2cc(I)c(O)c(I)c2)c(I)c1)C(=O)O,AC50,[1],active: 0.423 µM
same,AC50,THRA (gene 7067),active: 0.835 µM
same,AC50,THRB (gene 7068) [2],active: 0.739 µM
same,AC50,THRB (gene 7068) [3],active: 1.5 µM
Clc1ccc(COC(Cn2ccnc2)c2ccc(Cl)cc2Cl)cc1 (centres undefined),AC50,AR (gene 367),active: 0.172 µM
CNC(=O)ON=CC(C)(C)SC,AC50,[4],active: 25 µM
COC(=O)[C@H]1[C@H]2C[C@@H]3c4[nH]c5cc(OC)ccc5c4CCN3C[C@H]2C[C@@H](OC(=O)c2cc(OC)c(OC)c(OC)c2)[C@@H]1OC,AC50,[5],active: 1.18 µM
O=C1C2(Cl)C3(Cl)C4(Cl)C(Cl)(Cl)C5(Cl)C3(Cl)C1(Cl)C5(Cl)C24Cl (centres undefined),AC50,[6],active: 2.56 µM and active: 622 nM
c1ccc(C[n+]2cccc3ccccc32)cc1,AC50,[4],active: 14.1 µM
